The source of these data is PubChem BioAssay AID777 (Sanford-Burnham Center for Chemical Genomics, 2007).

Amino acid sequences for entries named in this document (tags omitted).
UniProt P11712, whole entry, looked up: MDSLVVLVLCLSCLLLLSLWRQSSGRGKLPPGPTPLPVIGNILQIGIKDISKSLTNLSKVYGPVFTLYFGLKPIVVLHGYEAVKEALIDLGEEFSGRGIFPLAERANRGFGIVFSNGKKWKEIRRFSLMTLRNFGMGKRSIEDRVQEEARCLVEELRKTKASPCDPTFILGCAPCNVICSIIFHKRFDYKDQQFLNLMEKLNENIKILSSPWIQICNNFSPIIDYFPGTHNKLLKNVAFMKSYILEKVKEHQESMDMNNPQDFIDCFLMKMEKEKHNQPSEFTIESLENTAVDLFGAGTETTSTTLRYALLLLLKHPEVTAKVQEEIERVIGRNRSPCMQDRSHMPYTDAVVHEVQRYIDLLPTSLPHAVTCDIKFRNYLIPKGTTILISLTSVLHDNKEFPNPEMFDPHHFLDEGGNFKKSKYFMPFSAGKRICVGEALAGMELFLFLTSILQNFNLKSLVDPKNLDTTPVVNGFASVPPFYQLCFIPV

Only a part is listed here, and it is no random draw. Active and inactive are the calls of the source.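 How the source made its calls: active means blocking of liver enzyme CYP2C9 beyond about 50% at 5 µM (limit read from the data); inactive means the rest.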

By inhibition is commonly meant the change of the read-out against control, counted positive when it falls.

The assay concerns the target Cytochrome P450 2C9 (Homo sapiens) (UniProt P11712). The assay can be described thus: blockers of cytochrome P450 2C9 activity – biochemical, luminescence, ADME assay, primary screen (AID 777). The note with it: CYP2C9 Supersomes, luciferin-H conversion, at 5 µM, stronger effect = higher value.
In the case of `O=P1(Nc2ncccn2)COc2ccccc2OC1`, the inhibition is inactive: -4.9%.

As to `Cc1ccc(OCC(=O)OC2CN3CCC2CC3)cc1` (stereo not given), the inhibition was inactive: -5.3%.

With `O=P1(Nc2ccc(Br)cn2)COc2ccccc2OC1`, the inhibition was inactive: 40.8%.

With `Cc1nn(-c2ccccc2)c2c1P(=O)(N1CCOCC1)N(C)C(c1ccccc1)=N2` (stereo not given), the inhibition is inactive: 5.2%.

Turning to `O=P1(Nc2ccccn2)COc2ccccc2OC1`, the inhibition was inactive: 11.7%.

As to `Clc1n[nH]nc1-c1nn[nH][15n]1`, the inhibition was inactive: 3.4%.

In the case of `Cc1cccc(OCC(=O)OC2CN3CCC2CC3)c1` (stereo not given), the inhibition was inactive: 6.1%.

With `O=[N+]([O-])c1ccc2c(c1)nnn2O`, the inhibition is inactive: -22.5%.

`CCOP1(=S)c2c(C)nn(CCC#N)c2N=C(c2ccc(F)cc2)N1C` (stereo not given): the inhibition is active: 54.5%.

With `O=P(Nc1nccs1)(c1ccccc1)c1nc2ccccc2s1` (stereo not given), the inhibition was active: 59.5%.

In the case of `CCOP1(=S)c2c(C)nn(CCC#N)c2N=C(c2ccccc2F)N1C` (stereo not given), the inhibition is active: 62.8%.

Regarding `CCN(CC)C(=S)SC(NC=O)C(Cl)(Cl)Cl` (stereo not given), the inhibition was inactive: -14.2%.

For `O=C(OC1CN2CCC1CC2)C12CC3CC(CC(C3)C1)C2` (stereo not given), the inhibition was inactive: -22.2%.

For `COP1(=S)c2c(C)nn(CCC#N)c2N=C(c2ccc(F)cc2)N1C` (stereo not given), the inhibition is inactive: 29.2%.

For `O=C(COc1ccccc1)OC1CN2CCC1CC2` (stereo not given), the inhibition was inactive: -8%.

With `CC1CCN(C(=O)Oc2c(Cl)cc(Cl)c3cccnc23)CC1`, the inhibition was inactive: -2.6%.

As for `O=[N+]([O-])c1cccc2n[nH]nc12`, the inhibition was inactive: -17.2%.

Take `CC(=O)N1C2C3N(C(C)=O)C1C1N(C(C)=O)C(C(N1C(C)=O)N3C(C)=O)N2C(C)=O`: the inhibition is inactive: 9.9%.

For the compound `CCc1nc2c(n1)c1c(non1O)c1c2no[n+]1[O-]`, the inhibition was inactive: 20.9%.

With `CC(C)CC(=O)NC(Sc1ccc(Cl)cc1)C(Cl)(Cl)Cl` (stereo not given), the inhibition is active: 52.4%.

Regarding `Cc1c2non([O-])c-2c(C)[n+](=O)[n+]1[O-]`, the inhibition is inactive: 1.3%.

For `Oc1ccccc1CNc1ccccn1`, the inhibition is inactive: -5.4%.

For `CCOP(=O)(Nc1ccccc1)OCC`, the inhibition was inactive: -5.8%.

Turning to `COC(=O)c1cc2c(s1)N=C(c1ccccc1)N(C)P2(=O)N1CCOCC1` (stereo not given), the inhibition is inactive: 11.6%.

In the case of `CCC(=O)N1C2C3N(C(=O)CC)C1C1N(C(=O)CC)C(C(N1C(=O)CC)N3C(=O)CC)N2C(=O)CC`, the inhibition was inactive: 40.1%.

Take `CCOC(=O)NC(Sc1ccccc1)C(Cl)(Cl)Cl` (stereo not given): the inhibition is inactive: 32.4%.

`O=P1(Nc2nc3ccc(Cl)cc3s2)COc2ccccc2O1` (stereo not given): the inhibition was inactive: 38.9%.

Consider `O=P(Nc1nccs1)(c1ccccc1)c1ccccc1`, for which the inhibition is inactive: 26.3%.

For the compound `c1nnnn1CCn1cnnn1`, the inhibition is inactive: -5.9%.

Consider `O=C(OC1CN2CCC1CC2)c1cccc(Cl)c1` (stereo not given), for which the inhibition is inactive: -9.9%.
